Only a part is listed here, and it is no random draw. Some salts and complexes are drawn in separate pieces, as the source files them; their charges need not balance. Activity calls are given as the source filed them. No stated cut-off is given here; in the data, active means inhibition above about 85%; inconclusive means no clear call, values can overlap the other calls; inactive means below about 68%.
Assay: inhibitors of MITF, primary screen, MITF inhibitor project, cell-based, luminescence (AID 2240);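 further: human melanocyte line stably carrying TRPM1 promoter luciferase reporter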
Settings: TRPM1 promoter luciferase, 24 h, hits give high values, concentration not given here

| Structure (SMILES) | inhibition |
| --- | --- |
| COc1cc2c(cc1NP(C)(=O)Oc1ccccc1)oc1ccccc12 (stereo unspecified) | inactive: 15.5% |
| CN(C(=O)Cc1ccc(Cl)c(Cl)c1)[C@H]1CCCC[C@@H]1N1CCCC1 | inactive: -6.36% |
| C/C1=C2N=C(/C=C3N=C(/C(C)=C4\[N-][C@@](C)([C@@H]5N=C1[C@](C)(CCC(=O)NCC(C)OP(=O)(O)O[C@@H]1[C@H](O)[C@H](n6cnc7cc(C)c(C)cc76)O[C@H]1CO)[C@H]5CC(N)=O)[C@@](C)(CC(N)=O)[C@@H]4CCC(N)=O)[C@@](C)(CC(N)=O)[C@@H]\3CCC(N)=O)C(C)(C)[C@@H]/2CCC(N)=O.[C-]#N.[Co+3] (stereo partly specified) | inactive: -3.47% |
| O=P1(Nc2ccccn2)COc2ccccc2OC1 | inactive: 10.5% |
| Cc1ccc(C(=O)OC2CN3CCC2CC3)cc1 (stereo unspecified) | inactive: -6.43% |
| O=C(OC1CN2CCC1CC2)c1ccc(Cl)cc1 (stereo unspecified) | inactive: -1.57% |

Source: PubChem BioAssay AID2240 (Broad Institute, 2010)
